Molecular target: human GlyT1b (Homo sapiens, UniProt P48067)
Assay: [3H] Glycine Uptake Assay (SPA) in recombinant hGlyT1b-CHO cells
Format: cell-based
Conditions: Table 2, unit from table title

Sequences of proteins named here, by UniProt entry; tags and fusion partners are left off. Residues count along the entry.
UniProt P48067, 1-652 isoform 3: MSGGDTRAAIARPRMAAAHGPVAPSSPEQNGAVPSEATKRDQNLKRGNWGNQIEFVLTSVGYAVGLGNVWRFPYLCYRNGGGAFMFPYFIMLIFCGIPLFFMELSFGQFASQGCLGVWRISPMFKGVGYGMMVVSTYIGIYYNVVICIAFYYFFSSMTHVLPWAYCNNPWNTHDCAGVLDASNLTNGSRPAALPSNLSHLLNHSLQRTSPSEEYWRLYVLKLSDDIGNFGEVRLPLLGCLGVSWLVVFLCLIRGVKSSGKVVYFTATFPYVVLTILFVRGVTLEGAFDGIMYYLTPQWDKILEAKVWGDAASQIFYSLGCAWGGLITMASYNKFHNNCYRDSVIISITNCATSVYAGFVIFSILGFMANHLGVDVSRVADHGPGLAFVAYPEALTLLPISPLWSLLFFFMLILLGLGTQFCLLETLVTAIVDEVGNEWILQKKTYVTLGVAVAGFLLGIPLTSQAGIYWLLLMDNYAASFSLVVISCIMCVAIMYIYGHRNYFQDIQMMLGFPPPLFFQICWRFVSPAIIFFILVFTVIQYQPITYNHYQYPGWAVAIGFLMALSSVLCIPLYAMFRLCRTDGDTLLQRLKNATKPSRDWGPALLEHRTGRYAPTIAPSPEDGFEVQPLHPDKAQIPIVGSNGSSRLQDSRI

Question: `Cc1cccc(Cl)c1C(=O)NC(c1ccccc1)C12CCC(CC1)N2C` (stereo not shown) [Example 67] was tested. Which IC50 did it give?
Answer: The IC50 was 104 nM.
